{"source": "paper PMC7769561", "about": "“Antileishmanial activity of synthetic analogs of the naturally occurring quinolone alkaloid N-methyl-8-methoxyflindersin” (PLoS ONE, 2020)", "test_system": "L. (V.) panamensis intracellular amastigotes", "experiment": "Antileishmanial activity in L. (V.) panamensis intracellular amastigotes in hMDMs", "format": "cell-based, Leishmania (Viannia) panamensis", "method": "Next, 100 μL of the suspension was cultured in 96-well plates and infected with L. (V.) panamensis promastigotes (HMOM/COL/87/UA-140) at a 10:1 parasite:cell ratio. We incubated the plates in a 5% CO2 atmosphere for 4 h at 35°C. After incubation, we removed noninternalized parasites by washing the cells with 0.9% NaCl saline solution (Baxter International, Deerfield, IL, USA). The cells were incubated again for 24 h and then treated with each quinoline alkaloid–like compound at a concentration of 100, 10, 1, 0.1, and 0.01 μg/mL in a 5% CO2 atmosphere for 72 h at 36°C. Next, we quantified the percentage of infected cells using fluorescence microscopy, as previously described by Pérez-Cordero in 2011 [23], and quantified the parasite load (amount of intracellular promastigotes and amastigotes per cell) using Giemsa staining and flow cytometry (Cytomics FC 500 MPL; Beckman Coulter, Brea, CA, USA). […] Results were expressed as EC50 using Prism GraphPad software’s probit nonlinear regression analysis (https://www.graphpad.com/scientific-software/prism/). […]\nThe percentage inhibition was used to calculate EC50 by nonlinear regression analysis (fluorescence microscopy), while the parasite burden was evaluated as the percentage of intracellular promastigotes and amastigotes in 100 infected cells (Giemsa staining). […]", "note": "Values joined by “and” are separate entries in the source; they are usually repeats but may differ in a detail not shown here. Equal entries are not always repeated.", "data": [{"smiles": "Nc1ccc2cccc(O)c2n1", "note": "[Compound 8, 2-amino-8-hydroxyquinoline]", "values": [{"measurement": "SI (selectivity index = CC50/EC50)", "result": "5.44 and > 3"}]}]}
